Reference: patent US20130184280A1, “SUBSTITUTED THIAZOLES AS VEGFR2 KINASE INHIBITORS” (TELIK, INC., priority 2011, published 2013)

Amino acid sequences for entries named in this document (tags omitted). Residues count along the entry.
UniProt P35968, 20-1356 limits assumed: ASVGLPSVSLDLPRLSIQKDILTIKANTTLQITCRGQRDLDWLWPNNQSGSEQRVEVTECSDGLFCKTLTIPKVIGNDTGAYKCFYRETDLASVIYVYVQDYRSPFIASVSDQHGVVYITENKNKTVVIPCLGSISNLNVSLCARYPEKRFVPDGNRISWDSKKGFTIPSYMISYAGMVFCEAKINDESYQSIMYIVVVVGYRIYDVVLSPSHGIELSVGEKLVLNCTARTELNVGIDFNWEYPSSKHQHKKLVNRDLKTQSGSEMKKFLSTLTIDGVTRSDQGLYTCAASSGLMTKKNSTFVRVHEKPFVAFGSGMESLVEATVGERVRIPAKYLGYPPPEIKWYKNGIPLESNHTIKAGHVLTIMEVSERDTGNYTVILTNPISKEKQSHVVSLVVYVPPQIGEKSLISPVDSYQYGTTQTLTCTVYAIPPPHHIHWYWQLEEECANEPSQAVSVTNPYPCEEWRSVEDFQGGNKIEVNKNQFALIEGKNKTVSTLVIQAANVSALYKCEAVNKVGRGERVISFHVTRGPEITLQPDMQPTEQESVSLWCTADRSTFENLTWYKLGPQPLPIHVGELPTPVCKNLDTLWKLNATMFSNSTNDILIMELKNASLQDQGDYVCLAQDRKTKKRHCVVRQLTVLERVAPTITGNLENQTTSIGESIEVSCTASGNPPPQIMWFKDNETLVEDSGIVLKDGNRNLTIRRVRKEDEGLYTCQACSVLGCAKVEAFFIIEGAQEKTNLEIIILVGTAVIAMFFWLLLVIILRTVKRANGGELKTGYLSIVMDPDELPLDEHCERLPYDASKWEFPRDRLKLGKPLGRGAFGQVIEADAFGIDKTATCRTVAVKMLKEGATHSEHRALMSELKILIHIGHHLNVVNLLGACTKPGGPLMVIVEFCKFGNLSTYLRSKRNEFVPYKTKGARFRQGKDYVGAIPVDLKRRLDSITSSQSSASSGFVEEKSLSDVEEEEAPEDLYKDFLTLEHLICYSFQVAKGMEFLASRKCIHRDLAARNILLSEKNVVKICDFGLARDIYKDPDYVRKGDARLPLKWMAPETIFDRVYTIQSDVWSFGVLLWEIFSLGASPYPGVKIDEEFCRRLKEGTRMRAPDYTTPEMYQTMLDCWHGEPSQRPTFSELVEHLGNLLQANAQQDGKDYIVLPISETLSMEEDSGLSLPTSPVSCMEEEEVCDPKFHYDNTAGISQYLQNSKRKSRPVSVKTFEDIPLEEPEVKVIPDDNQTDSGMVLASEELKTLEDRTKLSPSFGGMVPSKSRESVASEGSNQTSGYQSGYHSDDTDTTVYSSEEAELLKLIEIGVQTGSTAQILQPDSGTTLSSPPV

What was measured:
[1] = molecular target: VEGFR2 kinase (Homo sapiens, UniProt P35968); test: In Vitro VEGFR2 Kinase Assay; settings: read-out: VEGFR2 IC50 (nM) (FP), CSKtide substrate, 60 minutes at room temperature
Method: In Vitro VEGFR2 Kinase Assay
50 ng/well VEGFR2 kinase (from InVitrogen) was mixed in buffer (14.5 μL/well). To this were added, 0.5 μL of the compound of this invention at a concentration of 2.5% in DMSO. After incubatiuon for 5 minutes at room temperature, 5 μL of substrate (CSKtide, 400 nM) and 8 μL ATP were added. The mixture was incubated for 60 minutes at room temperature and 60 uL of binding reagent (beads) was added. After incubation overnight at room temperature, the plate was read with a LJL plate reader.

[2] = test system: HCT116 (human colon carcinoma); test: In Vitro Cytotoxicity Assay HCT116 (CellTiter-Glo); settings: read-out: Cytotoxicity HCT116; HCT116 cells, cultured three days
Method: (§1) The cell lines HL60 (human promyelocytic leukemia) and HCT116 (human colon carcinoma) were obtained from the American Type Culture Collection, Manassas, Va., U.S.A. All products were used in accordance with manufacturer's directions. The cytotoxicity assays were conducted in triplicate, in each case with solvent control.
(§2) Log-phase cells were trypsinized, collected by centrifugation, and resuspended in a small volume of fresh medium, and the density of viable cells was determined following Trypan Blue staining Cells were diluted in fresh media, the test compounds (concentrations between 0.1 μM and 200 μM, dissolved in DMSO, 50 μL) added immediately after dilution to achieve a final DMSO concentration of 0.5%, then the suspensions added at 150 μL/well to 96-well plates, and incubated overnight to allow attachment in the case of adherent cells. The cells were cultured for three days (about three doubling times). The cells were then collected by centrifugation, and 100 μL of the culture supernatant was replaced by the CellTiter-Glo reagent. After incubation for 15 minutes at room temperature, the plate was read with a luminometer. […] The table gives cytotoxicity IC50s in μm.

[3] = test system: HL60 (human promyelocytic leukemia); test: In Vitro Cytotoxicity Assay HL60 (CellTiter-Glo); settings: read-out: Cytotoxicity HL 60; HL 60 cells, cultured three days
Method: as §1, §2

`Nc1ncncc1-c1nc(-c2cccc(NC(=O)Nc3cc(Cl)cc(Cl)c3)c2)cs1` was tested. Which IC50 [1] did it give?
Its IC50 is 30 nM.

And the IC50 [2]?
The IC50 was 4000 nM.

Which IC50 [2] does the source give for `Nc1ncncc1-c1nc(-c2ccc(NC(=O)Nc3ccc(F)c(C(F)(F)F)c3)cc2)cs1` here?
Its IC50 is 7000 nM.

Which results are given for `Cc1ccc(CNC(=O)c2cccc(-c3csc(-c4cncnc4N)n3)c2)cc1`?
IC50 [1]: 900 nM; IC50 [2]: 10000 nM

With `Cc1ccc(C(=O)Nc2cccc(-c3csc(-c4cncnc4N)n3)c2)cn1` as the molecule, how does the IC50 [1] read?
Its IC50 is 200 nM.

What about the IC50 [2] of the same molecule?
The IC50 was 2000 nM.

What does the source list for `Nc1ncncc1-c1nc(-c2cccc(NC(=O)c3cccc(CN4CCCCC4)c3)c2)cs1`?
IC50 [1]: 500 nM; IC50 [2]: 1000 nM; IC50 [3]: 800 nM

With `Nc1ncncc1-c1nc(-c2cccc(NC(=O)Nc3ccc([N+](=O)[O-])cc3)c2)cs1` as the molecule, how does the IC50 [1] read?
Its IC50 is 200 nM.
